Patent US20140349994A1, “Novel 2-Amino-4,5,6,8-Tetrahydropyrazolo[3,4-b]Thiazolo [4,5-d]Azepine Derivatives and Their Use as Allosteric Modulators of Metabotropic Glutamate Receptors” (Addex Pharma S.A., priority 2012, published 2014)

Amino acid sequences for entries named in this document (tags omitted). Residues count along the entry.
UniProt Q14833, 33-912 limits assumed: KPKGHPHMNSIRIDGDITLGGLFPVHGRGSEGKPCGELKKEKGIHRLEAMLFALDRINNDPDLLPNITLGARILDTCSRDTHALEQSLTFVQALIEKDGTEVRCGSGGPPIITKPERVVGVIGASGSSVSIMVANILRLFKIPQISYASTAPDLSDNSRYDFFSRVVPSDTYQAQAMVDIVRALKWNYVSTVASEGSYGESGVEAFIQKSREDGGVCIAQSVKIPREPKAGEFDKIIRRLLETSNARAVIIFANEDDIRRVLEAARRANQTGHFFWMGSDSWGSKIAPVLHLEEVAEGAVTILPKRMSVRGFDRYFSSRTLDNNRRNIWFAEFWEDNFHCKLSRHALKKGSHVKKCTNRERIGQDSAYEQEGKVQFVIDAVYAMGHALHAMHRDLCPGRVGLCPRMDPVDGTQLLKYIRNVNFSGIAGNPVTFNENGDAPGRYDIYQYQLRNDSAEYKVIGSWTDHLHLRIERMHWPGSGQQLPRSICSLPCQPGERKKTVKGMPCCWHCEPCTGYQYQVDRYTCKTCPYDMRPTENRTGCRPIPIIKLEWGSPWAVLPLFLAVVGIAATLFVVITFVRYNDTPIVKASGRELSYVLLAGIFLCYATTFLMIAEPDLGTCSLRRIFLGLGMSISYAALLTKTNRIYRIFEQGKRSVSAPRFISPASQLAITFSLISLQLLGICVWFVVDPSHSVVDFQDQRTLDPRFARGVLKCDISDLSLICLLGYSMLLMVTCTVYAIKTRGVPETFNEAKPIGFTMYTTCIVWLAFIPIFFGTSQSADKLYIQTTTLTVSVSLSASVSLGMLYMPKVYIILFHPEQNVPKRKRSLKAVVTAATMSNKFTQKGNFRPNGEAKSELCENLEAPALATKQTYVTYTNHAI

Biological target: recombinant human mGluR4a receptors (Homo sapiens, UniProt Q14833)
Assay: mGluR4 assay on HEK-expressing human mGluR4: fluorescent cell based Ca2+ mobilization assay (FLIPR)
Details: read-out: Ca^2+ Flux (mean EC50); HEK-293 cells expressing hmGluR4; enhancement of EC25 glutamate response; mean of at least three independent experiments in duplicate
Excerpt: mGluR4 Assay on HEK-Expressing Human mGluR4
The compounds of the present invention are positive allosteric modulators of mGluR4 receptor. Their activity was examined on recombinant human mGluR4a receptors by detecting changes in intracellular Ca^2+ concentration, using the fluorescent Ca^2+-sensitive dye Fluo4-(AM) and a Fluorometric Imaging Plate Reader (FLIPR, Molecular Devices, Sunnyvale, Calif.).
The cDNA encoding the human metabotropic glutamate receptor (hmGluR4), (accession number NM 000841.1, NCBI Nucleotide database browser), was subcloned into an expression vector containing also the hygromycin resistance gene. In parallel, the cDNA encoding a G protein allowing redirection of the activation signal to intracellular calcium flux was subcloned into a different expression vector containing also the puromycin resistance gene. Transfection of both these vectors into HEK293 cells with PolyFect reagent (Qiagen) according to supplier's protocol, and hygromycin and puromycin treatment allowed selection of antibiotic resistant cells which had integrated stably one or more copies of the plasmids. […]
After 10 s of basal fluorescence recording, various concentrations of the compounds of the invention were added to the cells. Changes in fluorescence levels were first monitored for 180 s in order to detect any agonist activity of the compounds. […]

SMILES	EC50
Cc1cccc(Nc2nc3c(s2)CCN(Cc2cc(C)on2)c2[nH]ncc2-3)n1	0.1 to 1 µM
COCCCN1CCc2sc(Nc3ncc(F)cn3)nc2-c2cn[nH]c21	< 0.1 µM
